# Source: ChEMBL document CHEMBL4219205, “Utilizing a structure-based docking approach to develop potent G protein-coupled receptor kinase (GRK) 2 and 5 inhibitors” (Bioorg Med Chem Lett, 2018)
# Protein sequences, listed by entry. Tags and fused reporters are not part of them.
# UniProt P34947, whole entry: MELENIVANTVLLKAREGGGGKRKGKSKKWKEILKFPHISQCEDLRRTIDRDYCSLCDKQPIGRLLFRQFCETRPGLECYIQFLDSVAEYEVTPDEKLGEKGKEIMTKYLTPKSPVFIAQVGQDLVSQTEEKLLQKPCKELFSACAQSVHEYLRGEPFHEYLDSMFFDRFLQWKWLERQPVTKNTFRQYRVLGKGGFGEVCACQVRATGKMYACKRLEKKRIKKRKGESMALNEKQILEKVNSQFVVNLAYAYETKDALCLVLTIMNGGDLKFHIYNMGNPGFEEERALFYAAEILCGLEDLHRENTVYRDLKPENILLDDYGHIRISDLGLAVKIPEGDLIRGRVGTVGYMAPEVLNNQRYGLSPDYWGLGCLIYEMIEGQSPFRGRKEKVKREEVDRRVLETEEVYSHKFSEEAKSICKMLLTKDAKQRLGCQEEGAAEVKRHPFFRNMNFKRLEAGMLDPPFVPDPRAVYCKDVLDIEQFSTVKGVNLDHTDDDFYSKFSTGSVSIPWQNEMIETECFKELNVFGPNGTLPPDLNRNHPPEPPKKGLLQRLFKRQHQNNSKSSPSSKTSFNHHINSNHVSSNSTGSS
# Target: G protein-coupled receptor kinase 5 (Homo sapiens, UniProt P34947)
# Assay: Inhibition of GRK5 (unknown origin) preincubated for 10 mins followed by peptide substrate and ATP addition measured after 1 hr by TR-FRET assay
smiles,measurement,value
COc1ccccc1C(C)NC(=O)c1cc(C2NC(=O)NC(C)=C2C(=O)Nc2ccc3[nH]ncc3c2)ccc1F (stereo unspecified),IC50,2800 nM
